One may read the IC50 as the concentration that gives 50% inhibition. Low readings indicate higher potency, high ones lower potency.

Amino acid sequences for entries named in this document (tags omitted).
UniProt Q13547, whole entry: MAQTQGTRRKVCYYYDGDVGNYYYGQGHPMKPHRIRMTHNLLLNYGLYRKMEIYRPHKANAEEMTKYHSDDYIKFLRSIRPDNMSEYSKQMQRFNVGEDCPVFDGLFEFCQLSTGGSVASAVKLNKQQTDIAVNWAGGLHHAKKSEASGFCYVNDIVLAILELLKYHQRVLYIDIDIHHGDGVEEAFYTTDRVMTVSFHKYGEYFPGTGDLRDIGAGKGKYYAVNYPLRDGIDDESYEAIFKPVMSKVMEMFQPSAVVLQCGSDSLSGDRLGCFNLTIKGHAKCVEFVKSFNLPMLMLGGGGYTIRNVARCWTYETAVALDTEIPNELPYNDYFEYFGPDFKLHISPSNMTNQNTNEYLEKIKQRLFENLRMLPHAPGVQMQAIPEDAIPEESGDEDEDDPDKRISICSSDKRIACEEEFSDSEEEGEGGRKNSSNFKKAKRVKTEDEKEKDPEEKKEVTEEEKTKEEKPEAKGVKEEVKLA
UniProt Q92769, whole entry: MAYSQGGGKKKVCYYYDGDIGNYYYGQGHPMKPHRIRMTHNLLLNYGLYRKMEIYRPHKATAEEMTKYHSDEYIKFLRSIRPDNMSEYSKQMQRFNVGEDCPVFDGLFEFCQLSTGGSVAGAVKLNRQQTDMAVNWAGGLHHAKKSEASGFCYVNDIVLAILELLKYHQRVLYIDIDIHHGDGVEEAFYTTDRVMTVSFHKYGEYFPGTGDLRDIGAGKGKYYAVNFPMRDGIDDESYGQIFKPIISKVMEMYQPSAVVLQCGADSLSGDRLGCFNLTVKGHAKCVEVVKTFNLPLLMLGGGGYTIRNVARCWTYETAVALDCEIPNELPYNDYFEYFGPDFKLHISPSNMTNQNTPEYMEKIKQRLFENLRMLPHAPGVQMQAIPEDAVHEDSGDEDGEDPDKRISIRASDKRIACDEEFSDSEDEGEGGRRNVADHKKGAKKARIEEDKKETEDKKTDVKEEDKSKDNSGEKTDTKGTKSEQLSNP

Our source for the IC50 values is ChEMBL document CHEMBL5214883, “Comprehensive review for anticancer hybridized multitargeting HDAC inhibitors” (Eur J Med Chem, 2021).

One assay concerns the target Histone deacetylase 1 (Homo sapiens, UniProt Q13547). As to the kind of experiment: Inhibition of HDAC1 (unknown origin).
A further assay deals with Histone deacetylase 2 (Homo sapiens, UniProt Q92769). As to the kind of experiment: Inhibition of HDAC2 (unknown origin).

Take `O=C(CCCCCOc1no[n+]([O-])c1S(=O)(=O)c1ccccc1)NO`: the IC50 stood at 38 µM against Histone deacetylase 1 and 380 µM on Histone deacetylase 2.
